This is an account of results in ChEMBL document CHEMBL1134717 (Bioorg Med Chem Lett, 2001).

Sequences of proteins named here, by UniProt entry; tags and fusion partners are left off. A change or cut given only in a name is not applied to a line headed by its entry.
UniProt P97266, whole entry: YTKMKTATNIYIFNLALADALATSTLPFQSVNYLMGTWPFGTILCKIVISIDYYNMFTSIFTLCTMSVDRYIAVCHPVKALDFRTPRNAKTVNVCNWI
UniProt P41144: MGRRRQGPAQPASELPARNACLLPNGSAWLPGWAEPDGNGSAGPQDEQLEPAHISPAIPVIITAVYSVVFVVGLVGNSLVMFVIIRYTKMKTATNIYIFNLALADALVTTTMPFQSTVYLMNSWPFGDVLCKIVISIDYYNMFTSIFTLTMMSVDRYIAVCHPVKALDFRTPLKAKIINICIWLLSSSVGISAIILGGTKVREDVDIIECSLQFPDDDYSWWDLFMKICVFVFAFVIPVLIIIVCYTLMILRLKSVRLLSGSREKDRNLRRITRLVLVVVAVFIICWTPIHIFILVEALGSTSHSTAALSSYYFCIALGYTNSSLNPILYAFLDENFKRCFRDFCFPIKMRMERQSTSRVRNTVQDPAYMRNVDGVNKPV

Each structure is given as a SMILES string.

As usually defined, the Ki is the dissociation constant of the complex between target and ligand, obtained from inhibition or displacement. A high value points to lower affinity.

The target of experiment [1] is Mu-type opioid receptor (Cavia porcellus, UniProt P97266). As to the kind of experiment: Binding affinity towards guinea pig Opioid receptor mu 1 using radioligand [3H]DAMGO.
In experiment [2] the target is Kappa-type opioid receptor (Cavia porcellus, UniProt P41144). As to the kind of experiment: Binding affinity towards guinea pig Opioid receptor kappa 1 using radioligand [3H]U69,593.

In the case of `CC1C2Cc3ccc(C(N)=O)cc3C1(C)CCN2CC1CC1` (configuration not stated), the results for the Ki in experiment [1] and in experiment [2] were 0.41 nM and 0.53 nM, respectively.
